# High-throughput results from PubChem BioAssay.
# Shown are actives, neighbours in structure and some others; about 2.2% of the full set was active somewhere.
# Nrf2 inh: inhibitors of Nrf2 signaling | A549 ARE-Fluc reporter, luciferase luminescence, 18-24 h | Potency, µM (titrated, usually from 46 µM), for inactives: top-dose activity change, negative = inhibition, hits mostly inhibitors | 2.1% of 360,000 active; also: potency is read from the fitted curve at half-maximal effect; % is scaled to controls: 0 for no effect and ±100 for the full control effect; nearly all actives have a fitted effect of over 60% in size
#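 Cells were seeded and rested 2 h, then exposed to compounds for 18-24 h. CellTiter-Fluor was read first as a viability measure. BugLite was added 15 min before the final luminescent read of ARE-luciferase activity in A549 cells.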
# Nrf2 ARE act: Nrf2 pathway activation; AREc32 ARE-luciferase reporter (MCF7-derived line), luminescence, 24 h; Potency, µM (doses to about 46.1 µM), for the others: at the highest dose activation, actives largely listed as activators; 0.31% of 410,000 active; AID 624171; also: potency is read from the fitted curve at half-maximal effect; % of control where 0% means no effect; nearly all actives have a fitted effect of over 65% in size
#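 Luciferase luminescence (Steady-Glo, 30 min at room temperature) served as the read-out of ARE activation in AREc32 cells treated with compounds for 24 hr at 37 deg C.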
# miR-21 reporter: raises the signal of a miR-21 reporter; Potency, µM (doses to about 38.3 µM), inactives show top-dose reporter change, positive = more light; HeLa miR-21 FLuc reporter, luciferase, 48 h; AID 2288; 340,000 tested, under 10 active; active = well fitted rising curve with a large enough effect; inconclusive = small, poorly fitted or top-dose-only effect; inactive = no such curve, though single readings can be large or run the other way;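 further: % of control where 0% means no effect; miR-21 action dims this reporter so a rising signal means less miR-21 action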
#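 HeLa cells endogenously expressing miR-21, stably carrying CMV-driven firefly luciferase with a downstream miR-21 binding site, 2000 cells/well. Titrations up to approximately 40 uM, 48 hours; luciferase luminescence read.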
# B2AR arrestin: agonists driving beta-arrestin recruitment to human beta2-adrenergic receptor; P07550; beta-arrestin recruitment to beta2AR, cell-based reporter; Potency, µM (series often up to 46.1 µM), without a hit: at the top dose activation, actives largely listed as activators; 0.02% of 330,000 active; AID 492947;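 also: potency is read from the fitted curve at half-maximal effect; 0% = DMSO controls and full agonism = EC100 isoproterenol or metaproterenol; nearly all actives have a fitted effect of over 65% in size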
# A549 viability: counter-screen for Nrf2 inhibitors: cytotoxicity in A549 cells; A549 ARE-Fluc cells, CellTiter-Fluor viability, 18-24 h; Potency, µM (highest dose often 46 µM), without a hit: at the top dose activity change, negative = cytotoxicity, actives largely listed as inhibitors; 0.16% of 390,000 active; also: potency is read from the fitted curve at half-maximal effect; % is scaled to controls: 0 for no effect and ±100 for the full control effect
#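 A549 ARE_Fluc cells in 5% FBS OPTI-MEM were exposed to compounds in concentration-response for 18-24 h at 37 deg C. Viability was read by CellTiter-Fluor fluorescence (Ex 405/Em 525) after 30 min, before the luciferase read.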
# The depositor's hits bear a star; ? = inconclusive; / = no result. Unless noted, calls follow the shape of the dose curve; as a rule, active = well fitted curve in the direction sought with a large enough effect; inconclusive = small, poorly fitted or top-dose-only effect, or another doubt; inactive = no such curve, though single readings can be large; an effect the other way counts as inactive or inconclusive.
SMILES,Nrf2 inh,Nrf2 ARE act,miR-21 reporter,B2AR arrestin,A549 viability
CCN(CC(=O)Nc1cccc(OC)c1)c1ncnc2sc(C)c(C)c12,21µM*,3%,0%,-1%,-6%
COc1cccc(NC(=O)COc2ncnc3sc(C)c(C)c23)c1,-1%,3%,1%,0%,-2%
COc1cc(/C=C/C(=O)c2ccc3c(c2)OCCO3)cc(Br)c1OCC(=O)N(C)C,21µM*,?,?,0%,?
COc1ccc(Cc2c(-c3ccccc3)nc3c4ccccc4ccn23)c(C)c1,/,5µM*,/,/,/
Cc1cc(Br)cn2c(Cc3ccsc3)c(-c3cccc(Br)c3)nc12,/,23%,/,/,/
Brc1cccc(-c2nc3c4ccccc4ccn3c2Cc2ccsc2)c1,/,11µM*,/,/,/
Fc1cccc(Cc2c(-c3ccco3)nc3c4ccccc4ccn23)c1,/,5µM*,/,/,/
Fc1cccc(Cc2c(-c3cccc(Cl)c3)nc3c4ccccc4ccn23)c1,/,14%,/,/,/
Clc1cccc(Cc2c(-c3ccccc3)nc3c4ccccc4ccn23)c1,/,5µM*,/,/,/
O=[S+]([O-])(NC[C@H]1CCC[C@H](CN[S+](=O)([O-])c2c(F)cccc2F)C1)c1ccc2c(c1)OCCO2,-15%,/,/,/,-12%
Nc1nc(NCc2ccc(Cl)c(Cl)c2)c2[nH]cnc2n1,6%,/,/,/,6%
Cc1ccc(CN2C(=O)C3(SCC(=O)N3c3ccc(C)c(C)c3)c3ccccc32)cc1 (stereo unspecified),?,4%,?,/,-22%
O=C(Nc1ccc(N2CCCCC2)cc1)c1ccc([N+](=O)[O-])o1,?,?,-48%,0%,?
O=C(Nc1ccc(N2CCN(C(=O)c3ccc(Cl)cc3)CC2)cc1)c1ccc2c(c1)OCCO2,6.5µM*,0%,17%,0%,-11%
O=C(Nc1ccc(N2CCN(Cc3ccccc3F)CC2)cc1)c1ccccc1[N+](=O)[O-],-23%,0%,-2%,-1%,-1%
O=C(Nc1ccc(N2CCN(Cc3ccccc3F)CC2)cc1)c1ccc([N+](=O)[O-])o1,23µM*,?,3%,3%,16µM*
CS(=O)(=O)N1CCN(c2ccc(NC(=O)c3ccc([N+](=O)[O-])o3)cc2)CC1,-9%,?,-44%,0%,13µM*
O=C(c1ccc(N2CCCC2=O)cc1)N1CCN(c2ccc(Cl)cc2)CC1,18µM*,0%,8%,0%,-9%
CC(=O)N1CCCc2cc(S(=O)(=O)Nc3ccc(C)c(C)c3)ccc21,?,/,/,/,-1%
O=C(Nc1ccc2[nH]c(=O)[nH]c2c1)c1ccc([N+](=O)[O-])o1,18%,13µM*,/,2%,-1%
CC1CCN(c2ccccc2NC(=O)c2ccc([N+](=O)[O-])o2)CC1,-34%,0%,4%,0%,-6%
O=C(Nc1ccccc1N1CCCC1)c1ccc([N+](=O)[O-])o1,16µM*,?,8%,0%,?
O=C(Nc1ccc(N2CCN(C(=O)c3ccc(Cl)cc3)CC2)cc1)c1ccc([N+](=O)[O-])o1,21µM*,6.3µM*,-5%,0%,?
Cc1ccc(NC(=O)c2ccc([N+](=O)[O-])o2)cc1C,-7%,?,-1%,0%,?
CCCN1CNc2c(c(=O)[nH]c(=S)n2CCc2cccc(Cl)c2)C1,5%,/,/,/,14%
COc1ccc(OCc2cc(C3Nc4ccccc4C(=O)N3Cc3ccccc3)ccc2OC)cc1 (stereo unspecified),-25%,/,/,/,-5%
COc1cc(/C=C/c2ccc3cccc(OC)c3n2)c(OC(C)=O)c([N+](=O)[O-])c1,26µM*,7%,17%,0%,9.2µM*
O=C(CN(Cc1ccco1)C(=O)c1ccc([N+](=O)[O-])cc1)Nc1ccccc1C(F)(F)F,6%,3%,/,0%,-8%
CC(C)COc1ccc(C(=O)N(CC(=O)Nc2ccccc2C(F)(F)F)Cc2ccco2)cc1,18µM*,3%,/,-2%,?
CC(=O)Nc1cccc(S(=O)(=O)Nc2ccc(C)c(C)c2)c1,?,/,/,/,-1%
C#CCn1c(=NC(=O)c2ccco2)sc2cccc(Cl)c21,5%,4µM*,-16%,0%,-3%
CCOc1cccc2sc(=NC(=O)c3ccco3)n(CC(=O)OC)c12,-4%,15%,20%,-1%,-8%
COc1ccc(OCC(=O)Nc2cccc3ncccc23)cc1,/,2%,2%,0%,10%
O=C(Nc1cccc2ncccc12)c1ccccc1F,8%,13µM*,3%,-2%,-8%
O=C(CCl)Nc1cccc2ncccc12,16µM*,?,?,-1%,23µM*
COc1ccc2[nH]cc(CCN=C(NC(=O)c3ccccc3F)Nc3nc(C)cc(C)n3)c2c1,-1%,0%,-13%,/,-8%
CCOc1ccc(-n2nc(CO)c(C(=O)NCc3ccccn3)n2)cc1,23%,6%,8%,/,0%
Cc1ccc(S(=O)(=O)Nc2ccccc2N=Cc2ccc([N+](=O)[O-])cc2[N+](=O)[O-])cc1,0%,14µM*,/,/,-4%
CSc1nccc(-c2cc(Cl)sc2Cl)n1,/,11µM*,-8%,0%,14%
CSc1nccc(-c2c(-c3ccc(Cl)cc3)noc2C)n1,-5%,0%,2%,0%,18%
c1csc(CNc2ncnc3cc(-c4ccc5c(c4)OCO5)ccc23)c1,-13%,/,/,/,-3%
Cc1ccc(Cl)cc1N1CCN(C(=O)CSc2cc(=O)n(C)c3ccccc23)CC1,16µM*,3%,15%,/,-10%
Cc1ccc(Cl)cc1N1CCN(C(=O)COc2ccc(S(=O)(=O)NC(C)C)cc2)CC1,21µM*,0%,?,-1%,-10%
CCOC(=O)N1CCN(C(=O)CCNS(=O)(=O)c2ccccc2)CC1,5%,-1%,-1%,0%,0%
CCOC(=O)N1CCN(C(=O)COc2ccc(S(=O)(=O)NCc3ccccc3)cc2)CC1,18µM*,0%,1%,0%,-18%
Cn1c(=O)cc(SCC(=O)N2CCCC2)c2ccccc21,-13%,1%,0%,0%,6%
Cc1ccc(Cl)cc1N1CCN(C(=O)CN(C2CCCCC2)S(C)(=O)=O)CC1,18µM*,0%,?,0%,-10%
CS(=O)(=O)N(CC(=O)N1CCN(c2cccc(Cl)c2)CC1)C1CCCCC1,-10%,0%,3%,0%,-5%
O=C(NCc1ccccc1F)C(=O)NCC(c1ccco1)S(=O)(=O)c1cccs1 (stereo unspecified),/,1%,-4%,/,-5%
NCCCN(Cc1ccccc1)c1ccc(Br)cn1,?,/,/,/,10%
Cc1ccccc1OCC(=O)Nc1ccccc1CO,/,10µM*,-26%,0%,8%
COc1ccc(NC(=O)Nc2ccc(Cc3ccncc3)cc2)c(OC)c1,16µM*,0%,23%,0%,-6%
Cc1ccccc1OCC(=O)Nc1ccncc1,?,0%,1%,0%,1%
